ChEMBL document CHEMBL1143916, “Inhibition of 3(17)alpha-hydroxysteroid dehydrogenase (AKR1C21) by aldose reductase inhibitors” (Bioorg Med Chem, 2008)

Target: Aldo-keto reductase family 1 member B1 (Homo sapiens, UniProt P15121)
Test: Inhibition of human recombinant aldose reductase

IC50: 0.03 µM
Structure (SMILES): O=C(O)Cc1nn(Cc2nc3cc(C(F)(F)F)ccc3s2)c(=O)c2ccccc12 [ZOPOLRESTAT]
